Laboratory results from patent US20210246109A1, “POTENT AND SELECTIVE INHIBITORS OF CYTOCHROME P450” (University of Kentucky Research Foundation, priority 2020, published 2021).
Where two headings read alike, the source gives them in different places.

Assays:
CYP1A1 = target: T1, CYP1A1 (Homo sapiens, UniProt P04798); test: EROD assay in CYP1A1 counter-screen cell line; type: cell-based
T1 construct: expressed in transfected cells
T1 sequence (P04798 1-512): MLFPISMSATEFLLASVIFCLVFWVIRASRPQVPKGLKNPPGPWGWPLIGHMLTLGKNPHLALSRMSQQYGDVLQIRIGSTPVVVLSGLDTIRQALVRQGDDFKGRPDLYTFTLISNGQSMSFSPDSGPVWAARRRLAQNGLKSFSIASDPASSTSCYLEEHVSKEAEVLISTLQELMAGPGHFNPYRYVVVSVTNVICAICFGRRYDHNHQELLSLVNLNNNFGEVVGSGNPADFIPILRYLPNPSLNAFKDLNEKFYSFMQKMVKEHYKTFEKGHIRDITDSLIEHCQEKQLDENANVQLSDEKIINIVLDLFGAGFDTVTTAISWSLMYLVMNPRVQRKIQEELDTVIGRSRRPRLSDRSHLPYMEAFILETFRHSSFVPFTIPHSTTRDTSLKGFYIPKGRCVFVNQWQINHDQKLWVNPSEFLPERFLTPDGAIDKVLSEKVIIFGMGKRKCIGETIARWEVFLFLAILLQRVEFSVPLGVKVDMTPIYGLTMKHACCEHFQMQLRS

CYP1B1 = target: T2, CYP1B1 (Homo sapiens, UniProt Q16678); test: EROD assay in inducible CYP1B1 cell line; type: cell-based
T2 construct: expressed in transfected cells
T2 sequence (Q16678 1-543): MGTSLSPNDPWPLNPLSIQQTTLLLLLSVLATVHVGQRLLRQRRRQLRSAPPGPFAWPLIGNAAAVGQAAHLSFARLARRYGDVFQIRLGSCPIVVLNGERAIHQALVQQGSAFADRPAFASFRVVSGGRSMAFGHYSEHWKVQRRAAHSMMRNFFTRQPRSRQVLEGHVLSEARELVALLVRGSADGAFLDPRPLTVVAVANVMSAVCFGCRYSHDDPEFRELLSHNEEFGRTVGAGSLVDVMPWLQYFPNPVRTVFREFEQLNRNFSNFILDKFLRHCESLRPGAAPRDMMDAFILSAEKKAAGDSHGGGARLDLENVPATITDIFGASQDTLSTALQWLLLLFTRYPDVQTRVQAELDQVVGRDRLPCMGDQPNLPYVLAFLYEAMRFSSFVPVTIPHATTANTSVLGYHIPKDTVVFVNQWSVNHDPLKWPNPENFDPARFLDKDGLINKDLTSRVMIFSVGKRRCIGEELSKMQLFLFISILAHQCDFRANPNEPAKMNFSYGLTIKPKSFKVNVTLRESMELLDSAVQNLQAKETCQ

Row | Compound | IC50 (CYP1A1; Table 1, read-out: CYP1A1 IC50) [µM] | IC50 (CYP1A1; Table 3, read-out: IC50 1A1) [µM] | IC50 (CYP1B1; Table 1, read-out: CYP1B1 IC50) [µM] | IC50 (CYP1B1; Table 3, read-out: IC50 1B1) [µM] | IC50 (CYP1B1; IC50 CYP1B1, Table 2, EROD assay) [µM]
1 | O=c1cc(-c2ccccc2)oc2c1ccc1ccccc12 [ANF, reference compound] | 0.086 | 0.86 | 0.14 | 0.14 | 
2 | COc1ccc(-c2nc(-c3cccnc3)cs2)c(OC)c1 [GL661] |  |  |  |  | 0.0055
